In PubChem BioAssay AID504467 (National Center for Advancing Translational Sciences (NCATS), 2011):
The list shows a part of the results, in another mix than the full data. Results filed as inconclusive are left out. A call without a number means that no potency is given here. Some structures show a salt or complex split into parts, the way the source records it. Activity calls are given as the source filed them. The call rests on the fitted dose curve; in most records, active means well fitted inhibition curve with a large enough effect; inconclusive means small, poorly fitted or top-dose-only effect, or effect the other way; inactive means flat fitted curve, though single readings scatter.

Assay: qHTS screen for small molecules that inhibit ELG1-dependent DNA repair in human embryonic kidney (HEK293T) cells expressing luciferase-tagged ELG1; further: nearly all actives have a fitted effect of over 55% in size
Conditions: HEK293T ELG1-luciferase reporter, luminescence, 16 h, DNA damage induced by 5-fluorouridine; series mostly up to 46.1 µM
Potency means the concentration at half of the fitted maximal effect.

| Compound | Potency |
| --- | --- |
| O=C(NCC1(N2CCCCC2)CCCCC1)c1ccco1 | inactive |
| CCN1CCC(Nc2cccc(F)c2)CC1 | inactive |
| Cc1ccc(C(=O)NCC2(N3CCCCC3)CCCCC2)o1 | inactive |
| Fc1ccccc1NC1CCN(Cc2ccccc2)CC1 | inactive |
| COc1cc(OC)cc(C(=O)NCC2(N3CCCCC3)CCCCC2)c1 | inactive |
| CN1CCC(Nc2ccc(Cl)cc2)CC1 | inactive |
| COc1cccc(C(=O)N(c2cc(C)cc(C)c2)C2CCN(C(=O)OC(C)(C)C)CC2)c1 | active: 18.3 µM |
| COc1cc(OC)cc(C(=O)NCC2(N3CCOCC3)CCCCC2)c1 | inactive |
| CCC(CO)(C(=O)OC1CN2CCC1CC2)c1ccccc1 (stereo not given) | inactive |
| CC(C)(C)OC(=O)N1CCC(Nc2ccccc2)CC1 | inactive |
| O=C(O)C1(Nc2ccccc2)CCN(Cc2ccccc2)CC1 | inactive |
| CCCOc1ccc(C(=O)NCC2(N(C)C)CCCCC2)cc1 | inactive |
| CCOc1ncccc1C(=O)NCC1(N2CCOCC2)CCCCC1 | inactive |
| CN1CCC(Nc2ccc(F)c(Cl)c2)CC1 | inactive |
| CCc1cc(C(=O)NCC2(N3CCCCC3)CCCCC2)sc1C | inactive |
| O=C(OC1CN2CCC1CC2)C1c2ccccc2C=Cc2ccccc21 (stereo not given) | inactive |
| O=C(O)c1cccc(Nc2c([N+](=O)[O-])cc([N+](=O)[O-])cc2[N+](=O)[O-])c1 | inactive |
| CCOC(=O)N1CCC(Nc2ccc(C)cc2)CC1 | inactive |
| N/C(=N\O)c1c(N)no[n+]1[O-] | inactive |
| COc1ccc(C(=O)NCC2(N3CCOCC3)CCCCC2)cc1OC | inactive |
| COc1cc(C(=O)NCC2(N3CCOCC3)CCCCC2)cc(OC)c1C | inactive |
| O=C(NCC1(N2CCOCC2)CCCCC1)c1cc(Br)ccc1Cl | inactive |

| Compound | Potency |
| --- | --- |
| CN(C)C1(CNC(=O)c2cccc(C#N)c2)CCCCC1 | inactive |
| c1ccc(CN2CCC(Nc3ccccc3)CC2)cc1 | inactive |
| CCCN1CCC(Nc2cc(OC)cc(OC)c2)CC1 | inactive |
| CCOC(=O)C(CC)C1=NC(C)(C)Cc2ccccc21.O=[N+]([O-])c1cc([N+](=O)[O-])c(O)c([N+](=O)[O-])c1 (stereo not given) | inactive |
| CC(C)(C)OC(=O)N1CCC(N(C(=O)c2ccccc2)c2ccc(Cl)cc2)CC1 | inactive |
| O=C(NCC1(N2CCOCC2)CCCCC1)c1cc(=O)[nH]c2ccccc12 | inactive |
| COc1cc(C(=O)NCC2(N3CCCCC3)CCCCC2)ccc1OC(F)F | inactive |
| COc1ccc(NC2CCN(C(=O)OC(C)(C)C)CC2)cc1 | inactive |
| CN1CCN(CCOC(=O)C(O)(c2ccccc2)c2ccccc2)CC1 | inactive |
| O=C(NCC1(N2CCCCC2)CCCCC1)c1cccc(C(F)(F)F)c1 | inactive |
| CCN1CCC(Nc2ccc(Cl)cc2)CC1 | inactive |
| CSc1ccc(C(=O)NCC2(N3CCOCC3)CCCCC2)cc1 | inactive |
| O=C(NCC1(N2CCCCC2)CCCCC1)c1cccc([N+](=O)[O-])c1 | inactive |
| O=C(NCC1(N2CCCCC2)CCCCC1)c1ccc(OC(F)F)cc1 | inactive |
| CCCOc1ccc(C(=O)NCC2(N(C)C)CCCCC2)cc1OC | inactive |
| O=C(OC1CN2CCC1CC2)c1ccc([N+](=O)[O-])cc1 (stereo not given) | inactive |
| COc1ccc2c(c1O)-c1c(O)c(OC)cc3c1[C@H](C2)[N+](C)(C)CC3.O=[N+]([O-])c1cc([N+](=O)[O-])c([O-])c([N+](=O)[O-])c1[O-] | inactive |
| O=C(NCC1(N2CCCCC2)CCCCC1)c1cncc(Br)c1 | inactive |
| CC(C)c1ccc(NC2CCN(C(=O)OC(C)(C)C)CC2)cc1 | inactive |
| COc1ccc(CN(CCCl)CCCl)cc1Cl | inactive |
| CN(C)c1cccc(C(=O)NCC2(N3CCCCC3)CCCCC2)c1 | inactive |
| O=[N+]([O-])c1cc([N+](=O)[O-])c(OC2CCCCC2O)c([N+](=O)[O-])c1 (stereo not given) | inactive |

| Compound | Potency |
| --- | --- |
| N#CC1(Nc2ccccc2)CCN(Cc2ccccc2)CC1 | inactive |
| O=C(NCC1(N2CCCCC2)CCCCC1)c1ccc(Cl)s1 | inactive |
| O=C(OC1CN2CCC1CC2)C1c2ccccc2Oc2ccccc21 (stereo not given) | inactive |
| COc1ccc(Cl)cc1C(=O)NCC1(N2CCOCC2)CCCCC1 | inactive |
| CCOC(=O)N1CCC(Nc2ccc(OC)cc2)CC1 | inactive |
| O=C(NCC1(N2CCCCC2)CCCCC1)c1ccc(Cl)nc1 | inactive |
| Cc1cc(C)cc(N(C(=O)c2ccccc2)C2CCN(C(=O)OC(C)(C)C)CC2)c1 | inactive |
| O=C(NCC1(N2CCOCC2)CCCCC1)c1cc2ccccc2o1 | inactive |
| CSc1ccccc1C(=O)NCC1(N2CCCCC2)CCCCC1 | inactive |
| COc1ccc(C(=O)NCC2(N3CCCCC3)CCCCC2)cc1 | inactive |
| CC(C)(C)OC(=O)N1CCC(N(C(=O)c2ccccc2)c2ccc(F)cc2)CC1 | inactive |
| COc1ccc(C(=O)NCC2(N3CCCCC3)CCCCC2)c(OC)c1OC | inactive |
| O=C(NCC1(N2CCCCC2)CCCCC1)c1ccc(=O)[nH]c1 | inactive |
| O=C(NCC1(N2CCCCC2)CCCCC1)c1cccs1 | inactive |
| CCOC(=O)N1CCC(Nc2cccc(C)c2)CC1 | inactive |
| COc1cc(C(=O)NCC2(N(C)C)CCCCC2)ccc1OC(F)F | inactive |
| Cc1ccc(OCC(C)C)c(CN(CCCl)CCCl)c1 | inactive |
| CCCCOc1ccc(C(=O)NCC2(N3CCOCC3)CCCCC2)cc1 | inactive |
| CCOC(=O)N1CCC(Nc2ccc(F)cc2)CC1 | inactive |
| COc1ccc(NC2CCN(CCc3ccccc3)CC2)c(OC)c1 | inactive |
| CCOc1ccc(C)cc1CN(CCCl)CCCl | inactive |
